From patent US20210340177A1, “BIOACTIVE PEPTIDES HAVING HIGH BINDING AFFINITY TO HUMAN MUSCULAR NICOTINIC ACETYLCHOLINE RECEPTOR” (priority 2020, published 2021)

System: Human epidermal keratinocytes (HEKs)
Experiment: MTT assay on human epidermal keratinocytes in in vitro cultures
Conditions: MTT reading at 570 nm, 24 hours after treatment

## Lys-Lys-Tyr-Lys [Peptide V0083091A]
  Effect on viability of the HEKs (cytotoxicity): non-cytotoxic effect
Listed as KKYK
  Effect on viability of the HEKs (cytotoxicity): non-cytoxic effect
